The results in this text go back to ChEMBL document CHEMBL4665786, “Cellular Target Proteome in Breast Cancer Cells of an Oplopane Sesquiterpenoid Isolated from Tussilago farfara” (J Nat Prod, 2020).

Test [1] deals with T1, Peroxiredoxin-1 (Homo sapiens) (UniProt Q06830).
T1 sequence (whole entry): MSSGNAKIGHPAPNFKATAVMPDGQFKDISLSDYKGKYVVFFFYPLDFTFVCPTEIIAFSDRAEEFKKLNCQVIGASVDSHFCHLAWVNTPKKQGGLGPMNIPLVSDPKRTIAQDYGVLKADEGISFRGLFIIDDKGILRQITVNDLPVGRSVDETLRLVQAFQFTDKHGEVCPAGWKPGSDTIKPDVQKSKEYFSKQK

For test [2], the species on record is Homo sapiens.
Test [3] concerns the target T1, Peroxiredoxin-1 (Homo sapiens). The source holds these as a separate data set.
Test [4] is filed under the species Homo sapiens. The source holds these as a separate data set.

In the case of `C=C1[C@H]2[C@@H](/C(=C/C)C(=O)[C@H]2OC(=O)C(C)CC)[C@H](C(C)C)C[C@H]1OC(=O)/C=C(\C)CC` (some centres undefined), the values for the Ka (in test [1]; in the test listed under Homo sapiens [2]) were 2.15 10^4/M and 3.94 10^4/M, respectively. Moreover, the deltaH is -4.52 kcal/mol in test [3] and -6.5 kcal/mol in the test filed under Homo sapiens [4].
